Laboratory results as given in paper PMC9551036, “A selective and orally bioavailable VHL-recruiting PROTAC achieves SMARCA2 degradation in vivo” (Nature Communications, 2022).

Sequences of proteins named here, by UniProt entry; tags and fusion partners are left off. A line that says so, or that is headed by a name, gives the form on record, which may keep a tag or linker. Residues count along the entry.
UniProt P40337, 54-213 limits assumed: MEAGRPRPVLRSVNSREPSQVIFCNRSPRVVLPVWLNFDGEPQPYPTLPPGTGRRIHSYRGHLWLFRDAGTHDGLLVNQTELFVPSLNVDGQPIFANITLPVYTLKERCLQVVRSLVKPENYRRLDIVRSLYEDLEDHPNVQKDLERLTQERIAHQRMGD
UniProt P51531, 1373-1493 isoform 2 limits assumed: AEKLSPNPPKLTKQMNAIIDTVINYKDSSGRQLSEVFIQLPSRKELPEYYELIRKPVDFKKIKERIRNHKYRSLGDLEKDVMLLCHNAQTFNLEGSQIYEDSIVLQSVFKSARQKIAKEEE
UniProt P51531, whole entry: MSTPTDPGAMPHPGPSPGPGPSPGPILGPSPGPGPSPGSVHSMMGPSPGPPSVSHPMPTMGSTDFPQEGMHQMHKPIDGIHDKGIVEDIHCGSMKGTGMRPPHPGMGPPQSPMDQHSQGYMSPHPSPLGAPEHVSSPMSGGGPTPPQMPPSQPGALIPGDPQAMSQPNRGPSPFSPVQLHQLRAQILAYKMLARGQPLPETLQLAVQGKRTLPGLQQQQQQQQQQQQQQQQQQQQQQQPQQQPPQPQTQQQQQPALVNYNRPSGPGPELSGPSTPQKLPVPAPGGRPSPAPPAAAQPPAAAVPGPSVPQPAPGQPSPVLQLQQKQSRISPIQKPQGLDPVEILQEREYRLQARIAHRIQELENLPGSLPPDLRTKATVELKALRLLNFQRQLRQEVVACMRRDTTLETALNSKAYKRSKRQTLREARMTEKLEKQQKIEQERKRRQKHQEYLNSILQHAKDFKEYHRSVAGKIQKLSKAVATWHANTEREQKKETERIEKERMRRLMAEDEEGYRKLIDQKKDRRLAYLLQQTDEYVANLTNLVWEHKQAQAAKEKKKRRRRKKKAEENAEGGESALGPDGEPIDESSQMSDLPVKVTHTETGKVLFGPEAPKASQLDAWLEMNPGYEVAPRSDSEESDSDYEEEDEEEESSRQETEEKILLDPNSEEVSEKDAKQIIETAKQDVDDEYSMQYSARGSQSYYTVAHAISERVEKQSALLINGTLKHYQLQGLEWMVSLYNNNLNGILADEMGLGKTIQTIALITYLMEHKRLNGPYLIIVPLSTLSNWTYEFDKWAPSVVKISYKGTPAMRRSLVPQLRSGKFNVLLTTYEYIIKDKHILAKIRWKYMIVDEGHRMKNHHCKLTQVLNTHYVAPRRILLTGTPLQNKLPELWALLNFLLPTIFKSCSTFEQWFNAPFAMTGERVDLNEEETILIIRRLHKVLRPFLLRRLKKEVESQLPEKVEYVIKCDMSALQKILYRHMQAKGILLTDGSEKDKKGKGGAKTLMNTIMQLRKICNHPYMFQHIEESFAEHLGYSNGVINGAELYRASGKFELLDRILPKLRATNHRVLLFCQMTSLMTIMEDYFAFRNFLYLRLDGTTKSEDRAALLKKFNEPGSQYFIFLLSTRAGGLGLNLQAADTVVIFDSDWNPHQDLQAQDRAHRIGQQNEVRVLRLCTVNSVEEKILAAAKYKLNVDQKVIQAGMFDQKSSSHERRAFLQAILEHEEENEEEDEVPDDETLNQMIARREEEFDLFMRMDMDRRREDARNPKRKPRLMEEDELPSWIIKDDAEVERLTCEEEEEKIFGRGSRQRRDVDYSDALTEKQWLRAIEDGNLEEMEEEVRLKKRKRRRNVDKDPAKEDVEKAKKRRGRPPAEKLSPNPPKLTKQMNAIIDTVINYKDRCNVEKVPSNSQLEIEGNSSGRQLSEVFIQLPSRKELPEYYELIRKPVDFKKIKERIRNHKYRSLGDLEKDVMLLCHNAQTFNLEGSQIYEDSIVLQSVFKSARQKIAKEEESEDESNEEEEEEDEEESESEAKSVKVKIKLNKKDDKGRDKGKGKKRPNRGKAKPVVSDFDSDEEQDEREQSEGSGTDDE
UniProt P51531, 1373-1493 with tags or gaps isoform 2 limits assumed: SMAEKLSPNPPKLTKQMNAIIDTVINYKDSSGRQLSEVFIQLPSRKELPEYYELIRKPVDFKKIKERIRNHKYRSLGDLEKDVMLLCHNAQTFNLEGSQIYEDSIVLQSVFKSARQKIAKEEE
UniProt P51532, 1448-1569 limits assumed: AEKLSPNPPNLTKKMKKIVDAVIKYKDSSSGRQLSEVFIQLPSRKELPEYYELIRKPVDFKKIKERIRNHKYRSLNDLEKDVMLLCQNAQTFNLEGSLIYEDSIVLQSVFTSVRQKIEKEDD
UniProt P51532, whole entry: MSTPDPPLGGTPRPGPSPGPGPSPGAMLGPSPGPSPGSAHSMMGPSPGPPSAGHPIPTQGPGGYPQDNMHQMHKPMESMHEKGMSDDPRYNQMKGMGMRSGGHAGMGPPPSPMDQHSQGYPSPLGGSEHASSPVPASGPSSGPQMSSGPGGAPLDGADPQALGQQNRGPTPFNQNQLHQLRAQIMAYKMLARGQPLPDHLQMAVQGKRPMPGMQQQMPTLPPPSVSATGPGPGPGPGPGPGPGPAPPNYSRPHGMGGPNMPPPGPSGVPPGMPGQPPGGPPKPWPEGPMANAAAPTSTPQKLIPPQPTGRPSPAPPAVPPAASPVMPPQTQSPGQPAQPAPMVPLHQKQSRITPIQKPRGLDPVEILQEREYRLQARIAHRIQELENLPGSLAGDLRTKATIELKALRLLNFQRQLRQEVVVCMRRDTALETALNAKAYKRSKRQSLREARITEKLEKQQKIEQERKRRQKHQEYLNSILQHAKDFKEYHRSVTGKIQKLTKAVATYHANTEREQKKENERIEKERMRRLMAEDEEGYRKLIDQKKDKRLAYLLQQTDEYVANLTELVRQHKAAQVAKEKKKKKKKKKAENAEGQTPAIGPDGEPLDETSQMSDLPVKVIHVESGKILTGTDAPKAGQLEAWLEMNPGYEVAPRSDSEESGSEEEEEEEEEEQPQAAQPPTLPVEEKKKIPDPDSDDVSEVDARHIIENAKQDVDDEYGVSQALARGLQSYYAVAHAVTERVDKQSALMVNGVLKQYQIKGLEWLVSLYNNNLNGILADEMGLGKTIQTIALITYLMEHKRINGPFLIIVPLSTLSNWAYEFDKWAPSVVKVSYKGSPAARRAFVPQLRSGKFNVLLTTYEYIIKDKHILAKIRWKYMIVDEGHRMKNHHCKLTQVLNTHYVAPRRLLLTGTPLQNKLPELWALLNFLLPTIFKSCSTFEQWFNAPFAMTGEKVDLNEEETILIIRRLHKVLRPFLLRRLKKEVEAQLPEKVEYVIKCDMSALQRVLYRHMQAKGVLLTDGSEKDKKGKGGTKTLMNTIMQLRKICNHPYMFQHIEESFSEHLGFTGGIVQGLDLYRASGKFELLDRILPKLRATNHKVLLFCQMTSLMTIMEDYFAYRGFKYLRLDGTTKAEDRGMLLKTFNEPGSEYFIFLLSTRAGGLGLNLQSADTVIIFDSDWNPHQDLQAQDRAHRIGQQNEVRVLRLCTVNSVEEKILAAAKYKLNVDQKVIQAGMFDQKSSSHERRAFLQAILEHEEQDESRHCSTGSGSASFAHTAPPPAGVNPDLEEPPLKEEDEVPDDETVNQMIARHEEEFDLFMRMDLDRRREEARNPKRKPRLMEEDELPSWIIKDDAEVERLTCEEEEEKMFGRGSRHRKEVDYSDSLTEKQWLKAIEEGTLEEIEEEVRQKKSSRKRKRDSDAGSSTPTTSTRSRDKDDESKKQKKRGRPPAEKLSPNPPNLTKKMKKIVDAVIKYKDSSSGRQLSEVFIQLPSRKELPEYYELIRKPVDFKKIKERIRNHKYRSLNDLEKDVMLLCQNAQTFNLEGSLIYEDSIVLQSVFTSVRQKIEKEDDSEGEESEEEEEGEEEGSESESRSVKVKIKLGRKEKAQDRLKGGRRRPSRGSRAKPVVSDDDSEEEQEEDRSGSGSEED
UniProt Q86U86, 645-766 limits assumed: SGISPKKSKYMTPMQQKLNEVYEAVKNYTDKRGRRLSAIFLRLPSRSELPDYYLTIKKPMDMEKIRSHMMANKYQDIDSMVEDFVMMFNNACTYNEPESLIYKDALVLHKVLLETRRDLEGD
UniProt Q15369, 17-112 partner limits assumed: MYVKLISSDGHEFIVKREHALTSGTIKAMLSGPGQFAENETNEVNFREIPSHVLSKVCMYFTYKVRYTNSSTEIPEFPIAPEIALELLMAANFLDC
UniProt Q15370, 1-104 partner limits assumed: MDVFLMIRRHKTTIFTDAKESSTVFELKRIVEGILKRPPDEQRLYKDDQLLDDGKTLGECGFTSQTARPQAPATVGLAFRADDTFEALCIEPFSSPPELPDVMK

Tests used:
[1] = molecular target: T1, VCB: PROTAC: SMARCA2^BD ternary complex (Homo sapiens, UniProt P40337+P51531); experiment: SPR ternary complex measurement, VCB immobilised, 10 µM SMARCA2^BD present; conditions: for pKd: read-out: VCB + SMARCA2 KD, SPR
Caco-2 cell monolayer = experiment: Bidirectional permeability measurement in Caco-2 cells
NCI-H1568 cells = experiment: Cell viability assay (CellTiter Glo) in NCI-H1568
SMARCA2 [2] = molecular target: T2, SMARCA2 (Homo sapiens, UniProt P51531); experiment: Imaging-based SMARCA2 protein assay in RKO cells; conditions: read-out: RKO (18h) SMARCA2 DC50, 18h, individual replicates
[3] = molecular target: T3, VCB: PROTAC: SMARCA4^BD ternary complex (Homo sapiens, UniProt P40337+P51532); experiment: SPR ternary complex measurement, VCB immobilised, 10 µM SMARCA4^BD present; conditions: for pKd: read-out: VCB + SMARCA4 KD, SPR
[4] = test system: VCB: PROTAC: SMARCA2^BD ternary complex; experiment: TR-FRET ternary complex affinity and cooperativity, SMARCA2; type: binding, human; conditions: ratio TR-FRET EC50 / TR-FRET EC50 +VCB measured in the same run, SMARCA2BD
[5] = molecular target: T1, VCB: PROTAC: SMARCA2^BD ternary complex; experiment: as above; type: binding; conditions: read-out: TR-FRET Ternary SMARCA2BD EC50 (PROTAC + VCB); TR-FRET competition for SMARCA2BD, + VCB; mean ± SD
[6] = molecular target: VCB: PROTAC: SMARCA2^BD ternary complex (Homo sapiens, UniProt P51531); experiment: as above; type: binding; conditions: read-out: TR-FRET SMARCA2BD EC50; TR-FRET competition for SMARCA2BD, without VCB; mean ± SD
[7] = molecular target: T3, VCB: PROTAC: SMARCA4^BD ternary complex; experiment: TR-FRET ternary complex affinity and cooperativity, SMARCA4; type: binding; conditions: read-out: TR-FRET Ternary SMARCA4BD EC50 (PROTAC + VCB); TR-FRET competition for SMARCA4BD, + VCB; mean ± SD
[8] = test system: VCB: PROTAC: SMARCA4^BD ternary complex; experiment: as above; type: binding, human; conditions: ratio TR-FRET EC50 / TR-FRET EC50 +VCB measured in the same run, SMARCA4BD
[9] = molecular target: (Homo sapiens, UniProt P51532); experiment: as above; type: binding; conditions: read-out: TR-FRET SMARCA4BD EC50; TR-FRET competition for SMARCA4BD, without VCB; mean ± SD
SMARCA4 [10] = molecular target: T4, SMARCA4 (Homo sapiens, UniProt P51532); experiment: Imaging-based SMARCA4 protein assay in RKO cells; conditions: read-out: RKO (18h) SMARCA4 DC50, 18h, individual replicates
SMARCA4^BD = SMARCA4^BD (Homo sapiens, UniProt P51532); experiment: SPR binding to immobilised SMARCA4 bromodomain
SMARCA4 [11] = molecular target: T4, SMARCA4; experiment: SMARCA4 capillary electrophoresis protein assay in RKO cells; conditions: mean ± SD; for DC50: read-out: SMARCA4 DC50
SMARCA2^BD = SMARCA2^BD (Homo sapiens, UniProt P51531); experiment: SPR binding to immobilised SMARCA2 bromodomain
PBRM1BD5 [12] = molecular target: PBRM1BD5 (Homo sapiens, UniProt Q86U86); experiment: TR-FRET ternary complex affinity and cooperativity, PBRM1; conditions: read-out: TR-FRET PBRM1BD EC50; TR-FRET competition for PBRM1BD5, without VCB; mean ± SD
PBRM1BD5 [13] = experiment: as above; conditions: ratio TR-FRET EC50 / TR-FRET EC50 +VCB measured in the same run, PBRM1BD5
PBRM1BD5 [14] = molecular target: PBRM1BD5 (Homo sapiens, UniProt P40337+Q86U86); experiment: as above; conditions: read-out: TR-FRET Ternary PBRM1BD EC50 (PROTAC + VCB); TR-FRET competition for PBRM1BD5, + VCB; mean ± SD
VCB complex = VCB complex (Homo sapiens, UniProt P40337); experiment: SPR binary binding to immobilised VCB complex; conditions: read-out: VCB KD, binary binding to VCB, mean ± SD
SMARCA2 [15] = molecular target: T2, SMARCA2; experiment: SMARCA2 capillary electrophoresis protein assay in RKO cells; conditions: mean ± SD; for DC50: read-out: SMARCA2 DC50

## Cc1ncsc1-c1ccc([C@H](CCCN2CCC(c3ccc4c(c3)n(C3CCCC3)c3nc(=O)c5c(Br)cccc5n43)CC2)NC(=O)[C@@H]2C[C@@H](O)CN2C(=O)[C@@H](NC(=O)C2(N(C)C)CC2)C(C)(C)C)cc1
[1]; cooperativity, SMARCA2, ratio of KD values measured in the same run
  alpha: 0.2
[1]; ternary complex with SMARCA2BD, mean ± SD
  pKd: 6.76
[1]; ternary, individual replicates
  pKd: 6.97 and 6.58 and 6.81
Caco-2 cell monolayer
  Caco-2 Pab: 2 ± 1 10-6 cm/s
NCI-H1568 cells; read-out: EC50 cell proliferation (CellTiter Glo), NCI-H1568 (168 h), mean ± SD
  pEC50: 7.74
NCI-H1568 cells; read-out: NCI-H1568 (18h) CTG, NCI-H1568, (18h), CellTiter Glo, individual replicates
  pIC50: 7.61 and 7.66 and 7.98
SMARCA2 [2]
  DC50: 1.78 nM and 4.04 nM (2×)
[3]; cooperativity, SMARCA4, ratio of KD values measured in the same run
  alpha: 0.5
[3]; ternary complex with SMARCA4BD, mean ± SD
  pKd: 7.16
[3]; ternary, individual replicates
  pKd: 7.19 and 7.10
[4]
  cooperativity α (SMARCA2BD): 3.3 ± 1.5
[5]
  pEC50: 7.77
[6]
  pEC50: 7.28
[7]
  pEC50: 7.27
[8]
  cooperativity α (SMARCA4BD): 1.8 ± 0.4
[9]
  pEC50: 7.01
SMARCA4 [10]
  DC50: 17.5 nM and 30.5 nM and 46.7 nM
Solubility testing; pH 4.5
  Solubility pH 4.5: <1.000 <1.000 ug/mL
Solubility testing; pH 6.8
  Solubility pH 6.8: <1.000 <1.000 ug/mL
SMARCA4^BD; read-out: SMARCA4 KD, SMARCA4BD, mean ± SD
  pKd: 7.04
SMARCA4^BD; read-out: SMARCA4 KD, individual replicates
  pKd: 7.13 and 7.01 and 6.97
SMARCA4 [11]; RKO (4 h)
  SMARCA4 Dmax: 53 ± 15%
  DC50: 18 nM
SMARCA4 [11]; RKO (18 h)
  SMARCA4 Dmax: 76 ± 4%
  DC50: 29 nM
SMARCA2^BD; read-out: SMARCA2 KD, SMARCA2BD, mean ± SD
  pKd: 7.35
SMARCA2^BD; read-out: SMARCA2 KD, individual replicates
  pKd: 7.32 and 7.35 and 7.37
PBRM1BD5 [12]
  pEC50: 7.66
PBRM1BD5 [13]
  cooperativity α (PBRM1BD): 6.6 ± 0.5
PBRM1BD5 [14]
  pEC50: 8.52
VCB complex
  pKd: 7.43
Microsomal stability; human liver microsomes
  Mic. Stab. Human: 68 ± 3 % QH
  Mic. Stab. Human QH: 70.000% and 66.200%
Microsomal stability; mouse liver microsomes
  Mic. Stab. Mouse QH: 79.200% and 63.000%
Microsomal stability; rat liver microsomes
  Mic. Stab. Rat: <23 % QH
  Mic. Stab. Rat QH: <23.100 <23.100%
SMARCA2 [15]; RKO (4 h)
  SMARCA2 Dmax: 72 ± 7%
  DC50: 4 nM
SMARCA2 [15]; RKO (18 h)
  SMARCA2 Dmax: 83 ± 4%
  DC50: 3 nM

pEC50, pIC50, pKd: −log10 of the molar value. “And” between values parts separate entries of the source, which are not always exact repeats. Equal values may be shown once. Read-outs that look alike come from different tables or passages of the source.
